Reference: patent US20250186436A1 (4E Therapeutics, Inc., priority 2021, published 2025)

Test system: eIF4E phosphorylation at Serine 209 in HEK 293 cells
Assay: eIF4E phosphorylation in HEK 293 cells (phospho-specific antibody, fluorescent plate reader);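 note: Well-level p-eIF4E immunofluorescence normalized to DAPI signal, expressed as percent eIF4E phosphorylation, with IC50 derived from concentration-response curves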
Details: read-out: HEK 293 cell; eIF4E phosphorylation at Serine 209, 2 hours exposure

SMILES | IC50 [nM]
Cc1cc(Nc2cc(N)ncn2)c(=O)n2c1C(=O)NC21CCCC2(CC2)CC1 (single isomer, unassigned) [Enatiomer 1 of 4ET-01-027] | 11.6
Cc1cc(Nc2cc(N)ncn2)c(=O)n2c1C(=O)NC21CCCC2(CC2)CC1 (single isomer, unassigned) [Enatiomer 2 of 4ET-01-027] | 25.4
